Measured values as given in patent US11118200B2, “Method for preparing amines from aldehydes and ketones by biocatalysis” (COMMISSARIAT A L'ENERGIE ATOMIQUE ET AUX ENERGIES …, priority 2017, dated 2021).

System: enzyme of SEQ ID NO:3
Test: Screening of carbonyl-containing compounds with ammonia as amine source (specific activity, absorbance at 340 nm)
Assay type: biochemical, Microbacterium sp. MA1
Conditions: 0.2 mM NADPH (best of NADH/NADPH), 10 mM of carbonyl-containing compound
Description: All the reactions were conducted at 25° C. in spectrophotometric cell (10 mm light path). To a mixture of ammonium formate buffer (2 M NH4HCO2/NH4OH, pH 9.5), NADH or NADPH (0.2 mM) and an appropriate amount of purified enzyme was added.

Structure (SMILES): O=C1CCc2ccccc21
- Specific activity, SEQ ID NO: 3: 11.9^b mU.mg^-1

Marks after values point to notes of the source that are not given here.
